Assay results taken from patent publication US20190282656A1.
pKd: −log10 of the molar value.

Assays:
[1] = target: Cyclosporin A (soil fungi); assay: isothermal titration calorimetry
[2] = target: Cyclosporin A (soil fungi); assay: isothermal titration calorimetry at 25° C., dimerized CA192 titrated into CsA

| Substance | pKd [1] | pKd [2] |
| --- | --- | --- |
| CV96 (Cyclophilin-V96; CypA-V96 fusion protein) | 6.64 | – |
| CA192 (Cyclophilin-A192; CypA-A192 fusion protein) | – | 6.46 |
